From patent US8017321B2, “Gefitinib sensitivity-related gene expression and products and methods related thereto” (The Regents of the University of Colorado, A Body Corporate, priority 2005, dated 2011)

System: A549 NSCLC xenografts
Assay: Athymic nude mice bearing human NSCLC xenografts (FIG. 5)
Type: in vivo
Protocol: FIG. 5 is a line graph showing the effects of gefitinib on A549 NSCLC xenografts.
Based on the in vitro experiments, athymic nude mice bearing human NSCLC xenografts were treated with EGFR inhibitors ZD1839 or C225.

## C225: EGFR inhibitor used to treat nude mice bearing human NSCLC xenografts
  tumor growth of NSCLC xenografts after treatment: Growth delay was evident
